For one substance, Kd results are on record in patent US20030113828A1, “Compositions and methods for modulating Syk function” (priority 2001, published 2003).

The target in the assay is β1A integrin cytoplasmic domain model protein (UniProt P05556). As to the kind of experiment: surface plasmon resonance (BIAcore 3000). Background: Surface plasmon resonance follows binding to a sensor surface in real time, without labels.

As usually defined, the Kd is the equilibrium constant for the complex coming apart. Read a low Kd as a tighter complex.

“Syk(6-370) cleaved from GST-Syk(6-370) by thrombin (from UniProt P43405 6-370) (other; other documents disagree on this pair)” showed a Kd of 76 nM.
